Results on one compound are retold here after article PMC2605181 (Nature chemical biology, 2008).

Entries after “also recorded” stand apart in the source; their conditions may differ.

The assay has as its system brain levels of 2-AG, arachidonic acid, NAEs, MAGs. The assay is described as follows: Measurement of brain lipids in treated mice. The format is in vivo, mouse.

`O=C(Oc1ccc([N+](=O)[O-])cc1)N1CCC(C(O)(c2ccc3c(c2)OCO3)c2ccc3c(c2)OCO3)CC1` [JZL184]: for the setting “16 mg kg^-1 i.p., 0.5-24 h”, the “brain NAEs including anandamide, other MAGs and free fatty acids, time course” value is on record as “unchanged”; the “brain arachidonic acid, time course” value was “rapid and sustained decrease”. Where the note is “16 mg kg^-1 i.p., 24 h”, the “brain 2-AG levels at 24 h” value is “returned to near-control levels; also recorded: returned to baseline”. Besides, where the note is “4-40 mg kg^-1 i.p., 4 h”, the “brain arachidonic acid levels” value was “significant reductions”; the “brain levels of other MAGs (PG, OG) and palmitic and oleic acid” value is on record as “not significantly altered”. In addition, the “brain anandamide (AEA) levels” value (all doses tested (4-40 mg kg^-1 i.p.), 4 h) is “without altering anandamide; also recorded: unaffected”. For the same compound, the “brain PEA and OEA levels” value (doses below 40 mg kg^-1 i.p., 4 h) is listed as “did not change”.
